According to US8450270B2 (Indiana University Research and Technology Corporation, priority 2008, dated 2013):

Experiment: Stability of peptide solutions in syringes (RP-HPLC and SEC, UV 280 nm)
Format: physicochemical
Settings: up to 6 months, 1 mg/mL solution; FIG. 12

## CC(=O)NCC[C@H](NC(=O)[C@H](CO)NC(=O)[C@@H](N)Cc1c[nH]cn1)C(=O)NCC(=O)N[C@H](C(=O)N[C@@H](Cc1ccccc1)C(=O)N[C@H](C(=O)N[C@@H](CO)C(=O)N[C@@H](CC(=O)O)C(=O)N[C@@H](Cc1ccc(O)cc1)C(=O)N[C@@H](CO)C(=O)N[C@@H](CCCCN)C(=O)N[C@@H](Cc1ccc(O)cc1)C(=O)N[C@@H](CC(C)C)C(=O)N[C@@H](CC(=O)O)C(=O)NC(C)(C)C(=O)N[C@@H](CCCNC(=N)N)C(=O)N[C@@H](CCCNC(=N)N)C(=O)N[C@@H](C)C(=O)N[C@@H](C)C(=O)N[C@@H](CC(=O)O)C(=O)N[C@@H](Cc1ccccc1)C(=O)N[C@H](C(=O)N[C@@H](C)C(=O)N[C@@H](Cc1c[nH]c2ccccc12)C(=O)N[C@@H](CC(C)C)C(=O)N[C@@H](CC(C)C)C(=O)N[C@@H](CC(=O)O)C(=O)N[C@@H](CCC(=O)O)C(=O)O)C(C)C)[C@@H](C)O)[C@@H](C)O [SEQ ID NO: 71]
  loss in peak area (UV 280 nm): No significant loss in peak area
